From US11186582B2, “Substituted [1,2,4]triazolo[1,5-a]pyrimidin-7-yl compounds as PDE2 inhibitors” (DART NEUROSCIENCE (CAYMAN) LTD., priority 2014, dated 2021)

By UniProt entry, the sequences of proteins in these tests, tags left out. Residues count along the entry.
UniProt O00408, 2-941: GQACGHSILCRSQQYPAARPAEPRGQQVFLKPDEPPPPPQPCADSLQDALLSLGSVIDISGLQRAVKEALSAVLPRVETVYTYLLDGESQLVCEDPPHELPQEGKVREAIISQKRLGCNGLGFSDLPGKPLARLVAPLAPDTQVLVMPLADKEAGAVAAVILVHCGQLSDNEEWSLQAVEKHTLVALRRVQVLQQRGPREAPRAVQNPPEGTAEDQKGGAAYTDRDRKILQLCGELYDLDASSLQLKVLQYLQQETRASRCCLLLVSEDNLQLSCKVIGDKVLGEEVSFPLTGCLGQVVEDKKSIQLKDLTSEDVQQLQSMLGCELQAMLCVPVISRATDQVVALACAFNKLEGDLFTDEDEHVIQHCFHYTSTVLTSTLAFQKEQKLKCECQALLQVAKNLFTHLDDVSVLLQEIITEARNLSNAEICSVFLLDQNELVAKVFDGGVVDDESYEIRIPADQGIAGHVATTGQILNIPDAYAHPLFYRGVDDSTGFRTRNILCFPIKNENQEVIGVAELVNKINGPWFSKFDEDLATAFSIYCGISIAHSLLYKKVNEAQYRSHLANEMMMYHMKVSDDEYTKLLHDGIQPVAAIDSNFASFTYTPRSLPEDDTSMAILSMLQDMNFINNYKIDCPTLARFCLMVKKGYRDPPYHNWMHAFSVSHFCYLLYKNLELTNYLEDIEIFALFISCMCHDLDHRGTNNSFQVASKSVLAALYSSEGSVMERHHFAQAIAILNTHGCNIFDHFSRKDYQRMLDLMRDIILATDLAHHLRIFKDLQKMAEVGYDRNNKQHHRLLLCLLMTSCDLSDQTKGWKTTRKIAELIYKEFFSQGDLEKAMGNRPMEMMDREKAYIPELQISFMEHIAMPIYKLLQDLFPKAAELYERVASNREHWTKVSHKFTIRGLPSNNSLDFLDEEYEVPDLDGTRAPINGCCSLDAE

Biological target: FLAG-tagged PDE2A1 (amino acids 2-941) (Homo sapiens (Human), UniProt O00408)
Assay: IMAP TR-FRET PDE2A phosphodiesterase enzymatic assay
Settings: not given

Row | SMILES | IC50 [nM]
1 | Cc1cc(C2CCCN(C(=O)C3Cc4ccccc4O3)C2)n2ncnc2n1 (centres unmarked) [Example 351, 1-[(2,3-Dihydro-1-benzofuran-2-yl)carbonyl]-3-{5-methyl-[1,2,4]triazolo[1,5-a]pyrimidin-7-yl}piperidine] | 100 to 1000
2 | Cc1cc(C2CCCN(C(=O)C3COc4ccccc4O3)C2)n2ncnc2n1 (centres unmarked) [Example 354, 1-[(2,3-Dihydro-1,4-benzodioxin-2-yl)carbonyl]-3-{5-methyl-[1,2,4]triazolo[1,5-a]pyrimidin-7-yl}piperidine] | 100 to 1000
3 | Cc1cc(C2CCCN(C(=O)C3Cc4ccccc4CN3C)C2)n2ncnc2n1 (centres unmarked) [Example 356, 2-Methyl-3-[(3-{5-methyl-[1,2,4]triazolo[1,5-a]pyrimidin-7-yl}piperidin-1-yl)carbonyl]-1,2,3,4-tetrahydroisoquinoline] | 100 to 1000
4 | Cc1cc(C2CN(C(=O)C3COc4ccccc4C3)CCO2)n2ncnc2n1 (centres unmarked) [Example 359, 4-[(3,4-Dihydro-2H-1-benzopyran-3-yl)carbonyl]-2-{5-methyl-[1,2,4]triazolo[1,5-a]pyrimidin-7-yl}morpholine] | 100 to 1000
5 | Cc1cc(C2CN(C(=O)c3ccc4c(c3)CCO4)CCO2)n2ncnc2n1 (centres unmarked) [Example 360, 4-[(2,3-Dihydro-1-benzofuran-5-yl)carbonyl]-2-{5-methyl-[1,2,4]triazolo[1,5-a]pyrimidin-7-yl}morpholine] | 100 to 1000
6 | Cc1cc(C2CN(C(=O)c3ncc(F)cc3F)CCO2)n2ncnc2n1 (centres unmarked) [Example 361, 4-[(3,5-Difluoropyridin-2-yl)carbonyl]-2-{5-methyl-[1,2,4]triazolo[1,5-a]pyrimidin-7-yl}morpholine] | > 10000
7 | Cc1cc(C2CN(C(=O)c3ccc(Cl)c(Cl)c3)CCO2)n2ncnc2n1 (centres unmarked) [Example 364, 4-(3,4-Dichlorobenzoyl)-2-{5-methyl-[1,2,4]triazolo[1,5-a]pyrimidin-7-yl}morpholine] | 100 to 1000
8 | Cc1cc([C@@H]2CN(C(=O)c3cc(F)c(F)c(Br)c3)CCO2)n2ncnc2n1 [Example 369, (2S)-4-(3-Bromo-4,5-difluorobenzoyl)-2-{5-methyl-[1,2,4]triazolo[1,5-a]pyrimidin-7-yl}morpholine] | 100 to 1000
9 | Cc1cc([C@@H]2CN(C(=O)c3cc(Cl)c(F)c(Cl)c3)CCO2)n2ncnc2n1 [Example 371, (2S)-4-(3,5-Dichloro-4-fluorobenzoyl)-2-{5-methyl-[1,2,4]triazolo[1,5-a]pyrimidin-7-yl}morpholine] | 100 to 1000
10 | Cc1cc([C@@H]2CN(C(=O)c3ccc4c(c3)OC(F)(F)O4)CCO2)n2ncnc2n1 [Example 373, (2S)-4-(2,2-Difluoro-2H-1,3-benzodioxole-5-carbonyl)-2-{5-methyl-[1,2,4]triazolo[1,5-a]pyrimidin-7-yl}morpholine] | 100 to 1000

Same assay, conditions: IMAP TR-FRET, 200 nM FAM-cAMP substrate, 11-point half-log dose-response

Row | SMILES | PDE2 (pIC50)
11 | Cc1cc(C2CCCN(C(=O)c3ccc4c(c3)OC(F)(F)O4)C2)n2ncnc2n1 (centres unmarked) [Example 350, 1-[(2,2-Difluoro-2H-1,3-benzodioxol-5-yl)carbonyl]-3-{5-methyl-[1,2,4]triazolo[1,5-a]pyrimidin-7-yl}piperidine] | >7
12 | Cc1cc(C2CCCN(C(=O)C3COc4ccccc4C3)C2)n2ncnc2n1 (centres unmarked) [Example 352, 1-[(3,4-Dihydro-2H-1-benzopyran-3-yl)carbonyl]-3-{5-methyl-[1,2,4]triazolo[1,5-a]pyrimidin-7-yl}piperidine] | >7
13 | Cc1cc(C2CCCN(C(=O)C3CCc4ccccc4O3)C2)n2ncnc2n1 (centres unmarked) [Example 353, 1-[(3,4-Dihydro-2H-1-benzopyran-2-yl)carbonyl]-3-{5-methyl-[1,2,4]triazolo[1,5-a]pyrimidin-7-yl}piperidine] | >7
14 | Cc1cc(C2CCCN(C(=O)C3CCc4cc(F)ccc4O3)C2)n2ncnc2n1 (centres unmarked) [Example 355, 1-[(6-Fluoro-3,4-dihydro-2H-1-benzopyran-2-yl)carbonyl]-3-{5-methyl-[1,2,4]triazolo[1,5-a]pyrimidin-7-yl}piperidine] | >7
15 | Cc1cc(C2CCCN(C(=O)c3cccc(I)c3)C2)n2ncnc2n1 (centres unmarked) [Example 357, 1-[(3-Iodophenyl)carbonyl]-3-{5-methyl-[1,2,4]triazolo[1,5-a]pyrimidin-7-yl}piperidine] | >7
16 | Cc1cc(C2CCCN(C(=O)c3ccc(I)cc3)C2)n2ncnc2n1 (centres unmarked) [Example 358, 1-[(4-Iodophenyl)carbonyl]-3-{5-methyl-[1,2,4]triazolo[1,5-a]pyrimidin-7-yl}piperidine] | >7
17 | Cc1cc(C2CN(C(=O)c3ccc4c(c3)CCO4)CC(F)(F)C2)n2ncnc2n1 (centres unmarked) [Example 362, 1-[(2,3-Dihydro-1-benzofuran-5-yl)carbonyl]-3,3-difluoro-5-{5-methyl-[1,2,4]triazolo[1,5-a]pyrimidin-7-yl}piperidine] | >7
18 | Cc1cc(C2CN(C(=O)C3COc4ccccc4C3)CC(F)(F)C2)n2ncnc2n1 (centres unmarked) [Example 363, 1-[(3,4-Dihydro-2H-1-benzopyran-3-yl)carbonyl]-3,3-difluoro-5-{5-methyl-[1,2,4]triazolo[1,5-a]pyrimidin-7-yl}piperidine] | >7
19 | COc1ccc2c(c1)OCC(C(=O)N1CC(c3cc(C)nc4ncnn34)CC(F)(F)C1)C2 (centres unmarked) [Example 365, 3,3-Difluoro-1-(7-methoxy-3,4-dihydro-2H-1-benzopyran-3-carbonyl)-5-{5-methyl-[1,2,4]triazolo[1,5-a]pyrimidin-7-yl}piperidine] | >7
20 | Cc1cc(C2CCCN(C(=O)[C@H]3COc4ccccc4C3)C2)n2ncnc2n1 (stereo partly drawn) [Example 366, 1-[(3R)-3,4-Dihydro-2H-1-benzopyran-3-carbonyl]-3-{5-methyl-[1,2,4]triazolo[1,5-a]pyrimidin-7-yl}piperidine] | >7
21 | Cc1cc(C2CCCN(C(=O)[C@@H]3COc4ccccc4C3)C2)n2ncnc2n1 (stereo partly drawn) [Example 367, 1-[(3S)-3,4-Dihydro-2H-1-benzopyran-3-carbonyl]-3-{5-methyl-[1,2,4]triazolo[1,5-a]pyrimidin-7-yl}piperidine] | >7
22 | Cc1cc([C@@H]2CN(C(=O)c3ccc(C(F)(F)F)c(Br)c3)CCO2)n2ncnc2n1 [Example 368, (2S)-4-[3-Bromo-4-(trifluoromethyl)benzoyl]-2-{5-methyl-[1,2,4]triazolo[1,5-a]pyrimidin-7-yl}morpholine] | >7
23 | Cc1cc([C@@H]2CN(C(=O)c3cc(Cl)c(Cl)c(Cl)c3)CCO2)n2ncnc2n1 [Example 370, (2S)-2-{5-Methyl-[1,2,4]triazolo[1,5-a]pyrimidin-7-yl}-4-(3,4,5-trichlorobenzoyl)morpholine] | >7
24 | Cc1cc([C@@H]2CN(C(=O)c3ccc4occc4c3)CCO2)n2ncnc2n1 [Example 372, (2S)-4-(1-Benzofuran-5-carbonyl)-2-{5-methyl-[1,2,4]triazolo[1,5-a]pyrimidin-7-yl}morpholine] | >7
25 | Cc1cc([C@@H]2CN(C(=O)c3cc(-c4ccccc4)nn3C)CCO2)n2ncnc2n1 [Example 374, (2S)-4-(1-Methyl-3-phenyl-1H-pyrazole-5-carbonyl)-2-{5-methyl-[1,2,4]triazolo[1,5-a]pyrimidin-7-yl}morpholine] | >7
26 | Cc1cc([C@@H]2CN(C(=O)[C@H]3COc4ccccc4C3)CCO2)n2ncnc2n1 [Example 375, (2S)-4-[(3R)-3,4-Dihydro-2H-1-benzopyran-3-carbonyl]-2-{5-methyl-[1,2,4]triazolo[1,5-a]pyrimidin-7-yl}morpholine] | >7
